Some compounds may have been tested in ways that are not shown here.
Key:
[1] = Distribution of alfentanil, fentanyl and sufentanil, cubic phase/water, HPLC of water phase
[2] = Distribution coefficient in the system octanol/water

SMILES | [X]w ([1]; pH 4.09, 96 h, [X]0 0.500 (alfentanil) or 0.200 (fentanyl) mg/litre) | Kbl/w ([1]; pH 4.09, equation 2, 96 h) | [X]w ([1]; pH 7.33, 96 h, [X]0 0.500 (alfentanil) or 0.200 (fentanyl) mg/litre) | Kbl/w ([1]; pH 7.33, equation 2, 96 h) | [X]w ([1]; pH 9.66, 96 h, [X]0 0.500 (alfentanil) or 0.200 (fentanyl) mg/litre) | Kbl/w ([1]; pH 9.66, equation 2, 96 h) | distribution coefficient in the system oktanol/water [2] | Kbl/w ([1]; pH 4.0, equation 2, 96 h) | [X]w ([1]; pH 6.0, 96 h, [X]0 0.100 mg/litre) | Kbl/w ([1]; pH 6.0, equation 2, 96 h)
CCC(=O)N(c1ccccc1)C1(COC)CCN(CCn2nnn(CC)c2=O)CC1 | 0.203 mg/mL | 4.4 | 0.0148 mg/mL | 98 | 0.0180 mg/mL | 80 | 128 |  |  | 
CCC(=O)N(c1ccccc1)C1CCN(CCc2ccccc2)CC1 |  |  |  |  |  |  | 813 |  |  | 
CCC(=O)N(c1ccccc1)C1(COC)CCN(CCc2cccs2)CC1 |  |  |  |  |  |  | 1778 | 19.6 | 0.00535 mg/mL | 53

Source: patent publication US20020006436A1, “USE OF A LIQUID CRYSTALLINE PHASE FOR DETERMINING THE DISTRIBUTION OF A CHEMICAL SUBSTANCE BETWEEN A HYDROPHOBIC AND A HYDROPHILIC ENVIRONMENT” (priority 1996, published 2002)
